The text below walks through data of PMC7704109 (eLife, 2020).

Assay [1] concerns the target NPNDx1 peptide (Plasmodium berghei). Briefly: ITC. The settings on record: both partners purified.
Assay [2] addresses NPNDx2 peptide (Plasmodium berghei). Briefly: ITC. The settings on record: both partners purified.

Usually Kd stands for a measure of binding affinity in units of concentration. Lower therefore signals a tighter complex.

B1: 3D11 Fab H-58/73 germline-reverted mutant (Fab, V domains shown)
VH: QAYLQQSGAELVRSGASVKMSCKASGYTFTSYNMHWVKQTPGQGLEWIGYIYPGNGVTSFNQKFKGKATLTADKSSSTAYMQISSLTSEDSAVYFCASAAYWGQGTLVTVSS
VL: not shown
In the case of B1, the equilibrium dissociation constant (Kd) turned out to be 160 nM in assay [1] and 140 nM in assay [2].
